# Columns and labels:
# [1] = test system: laser-induced ocular hypertensive non-human primates; assay: Intraocular pressure (IOP) lowering effect in laser-induced ocular hypertensive non-human primates (topical dosing, pneumatonometer); format: in vivo
# [2] = test system: ocular normotensive New Zealand white rabbits; assay: Intraocular pressure (IOP) lowering effects in ocular normotensive New Zealand white rabbits (topical dosing, pneumatonometer); format: in vivo; conditions: Example 24, Table 3, topical 50 μL, 0.5 μmoles/eye (each compound)
compound,measurement,setting,value
O=C(O)CCOC[C@@H](CO[N+](=O)[O-])O[N+](=O)[O-],IOP change (mmHg) E300 min,"[1]; Example 22, Table 1, 300 min post-dose, topical 30 μL, 0.48 μmoles/eye (1.17 μmoles/eye for (IIIg)-OH), mean±SEM n=13",−2.8 ± 2.8 mmHg
same,time post-dosing of Emax,"[1]; Example 22, Table 1, topical 30 μL, 0.48 μmoles/eye (1.17 μmoles/eye for (IIIg)-OH)",180 min
same,IOP change (mmHg) Emax,"[1]; Example 22, Table 1, topical 30 μL, 0.48 μmoles/eye (1.17 μmoles/eye for (IIIg)-OH), change versus basal and vehicle, mean±SEM n=13",−6.0 ± 2.7 mmHg
same,IOP change (mmHg) 30 min,"[1]; Example 27, Table 6, 0.31 μmoles/eye (each compound), 30 μL topical, 30 min post-dose, mean±SEM n=13",−1.2 ± 0.7 mmHg
same,IOP change (mmHg) 60 min,"[1]; Example 27, Table 6, 0.31 μmoles/eye (each compound), 30 μL topical, 60 min post-dose, mean±SEM n=13",−3.9 ± 1.5 mmHg
same,IOP change (mmHg) 180 min,"[1]; Example 27, Table 6, 0.31 μmoles/eye (each compound), 30 μL topical, 180 min post-dose, mean±SEM n=13",−2.4 ± 1.4 mmHg
same,IOP change (mmHg) 300 min,"[1]; Example 27, Table 6, 0.31 μmoles/eye (each compound), 30 μL topical, 300 min post-dose, mean±SEM n=13",−3.9 ± 1.6 mmHg
same,IOP change (mmHg) 1440 min,"[1]; Example 27, Table 6, 0.31 μmoles/eye (each compound), 30 μL topical, 1440 min post-dose, mean±SEM n=13",−3.2 ± 1.6 mmHg
same,IOP change (mmHg) E300 min,"[2]; 300 min post-dosing, mean±SEM n=6-9",−0.08 ± 0.23 mmHg
same,time post-dosing of Emax,[2],30 min
same,IOP change (mmHg) Emax,"[2]; change versus basal and vehicle, mean±SEM n=6-9",−2.88 ± 0.36 mmHg
